Patent US20260232666A1, “COMPOSITIONS AND METHODS FOR INHIBITION OF RAS” (TheRas, Inc., priority 2023, published 2026)

By UniProt entry, the sequences of proteins in these tests, tags left out. Residues count along the entry.
UniProt P01116, 1-169 isoform 2 C118S/G12C limits assumed: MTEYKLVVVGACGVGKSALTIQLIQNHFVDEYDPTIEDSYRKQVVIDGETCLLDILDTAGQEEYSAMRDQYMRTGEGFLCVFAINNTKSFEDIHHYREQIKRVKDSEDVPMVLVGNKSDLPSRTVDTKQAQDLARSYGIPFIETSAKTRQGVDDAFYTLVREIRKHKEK
UniProt P01116, 1-169 isoform 2 G12C limits assumed: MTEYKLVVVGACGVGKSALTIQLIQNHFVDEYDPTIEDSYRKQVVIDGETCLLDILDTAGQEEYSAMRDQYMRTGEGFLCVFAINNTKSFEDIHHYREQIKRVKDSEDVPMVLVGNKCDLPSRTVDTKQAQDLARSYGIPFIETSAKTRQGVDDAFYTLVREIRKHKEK

What was measured:
[1] = target: GppNHp-loaded KRAS4b (amino acids 1-169) G12C/C118S protein (Homo sapiens, UniProt P01116, C118S/G12C); assay: Covalent cysteine 12 modification by MALDI-TOF MS, GppNHp-loaded KRAS G12C; settings: 15 minutes reaction time point
Protocol: (§1) Biological Example 1: Covalent Cysteine 12 Modification Analysis Using Matrix Assisted Laser Desorption Ionization-Time of Flight Mass Spectrometry (MALDI-TOF MS)
(§2) MALDI-TOF MS analysis was performed using 1 μM protein (KRAS G12C), and 1:2.5 protein to compound ratio.
(§3) Reaction: 1 μM of GppNHp, GTP, or GDP-loaded KRAS4b (amino acids 1-169) G12C/C118S protein (produced in-house by Protein Expression Laboratory, FNLCR/Leidos Biomed) in 20 mM 4-(2-hydroxyethyl)-1-piperazineethanesulfonic acid (HEPES) buffer containing 150 mM NaCl, 1 mM MgCl2, pH 7.3 was prepared freshly before assay. Twelve-μL aliquots of protein were dispensed onto low volume 384-well plate, then 30 nL of tested compounds from 1 mM DMSO stocks were added to appropriate wells using ECHO 555 acoustic liquid handler (Labcyte Inc.). For each reaction/assay, three blanks were prepared by mixing 12 μL of protein solution with 30 nL DMSO. The contents of the wells were carefully mixed by aspiration, and then each plate was sealed with an adhesive cover, centrifuged at 2000 g for 1 minute, and kept in the dark at room temperature until 5 min, 15 min, 30 min, 2 h, or 6 h collections.
(§4) Target pretreatment: Before each assay MALDI target (Bruker MPT 384 ground steel BC) was pre-treated by pipetting on each spot 0.75 μL of saturated sinapinic acid in acetonitrile (ACN).
(§5) Sample preparation: At collection time point, 2 μL of reaction mixtures were pipetted out into 15 μL MALDI matrix solution (saturated solution of sinapinic acid in 1:1 ACN:water solution containing 0.75% trifluoroacetic acid (TFA)) deposited on 384 well polypropylene plate. Resulting solution was mixed by aspiration, centrifuged at 2000 g for 1 minute, then 1.5 μL aliquots were dispensed on pre-treated MALDI target using Beckman Coulter Biomek FXP 96/384-Span-8 Laboratory Automation Workstation. Finally, the MALDI target was dried under mild vacuum to produce spots with fine crystalline structure.
(§6) Measurements: MALDI-TOF measurements were performed on a Bruker Daltonics rapiflex Tissuetyper TOF-TOF mass spectrometer using linear mode and mass range from 18.6 to 21.6 kDa. Detector gain was set to 3.3×(483 V), sample rate to 5 GS/s, real time smoothing to medium (175 MHz), laser smart beam pattern was set to: “MS Thin Layer M5”, and the laser frequency was 10000 Hz. Spectra were automatically collected using custom AutoXecute method. Laser power was auto adjusted using fuzzy control. The peak selection range was set to be between 19000 and 21500 Da. Peak evaluation uses half width parameter set to be smaller than 40 Da for processed spectrograms (centroid peak detection; smoothed by SavitzkyGolay algorithm using 7 m/z width and 2 cycles; baseline was subtracted using median algorithm with flatness 1 and median level 0.01). Fuzzy control used Proteins/Oligonucleotides protocol with minimum half width 1/10 times above threshold. Up to 40000 satisfactory shots were collected in 10000 shot steps. Dynamic termination was implemented to finish data collection when peak signal/noise ratio was reaching value of 50.
(§7) Spectra processing: Spectra were smoothed by SavitzkyGolay algorithm using 7 m/z width and three cycles. Centroid peak detection algorithm was used with signal to noise threshold set to 6, relative intensity threshold 4%, peak width 10 m/z and median baseline subtraction using flatness of 1 and median level of 0.01. Peak intensity and area under the peak were evaluated and recorded for all peaks between 19,300 Da and 21,550 Da.
(§8) Calculation of percent modification: Percent modification was calculated as a ratio of peak height for protein modified by compound to sum of peak height of remaining protein plus peak height for protein modified by compound. If multiple modifications were observed each was calculated as a ratio of peak height for given modification versus sum of peak heights for all observed protein species. Data reported in Table 4 are from 15 minutes reaction time point. […]

[2] = target: GTP-loaded KRAS4b (amino acids 1-169) G12C/C118S protein (Homo sapiens, UniProt P01116, C118S/G12C); assay: Covalent cysteine 12 modification by MALDI-TOF MS, GTP-loaded KRAS G12C; settings: 15 minutes reaction time point
Protocol: as §1, §2, §3, §4, §5, §6, §7, §8

[3] = target: GDP-loaded KRAS4b (amino acids 1-169) G12C/C118S protein (Homo sapiens, UniProt P01116, C118S/G12C); assay: Covalent cysteine 12 modification by MALDI-TOF MS, GDP-loaded KRAS G12C; settings: 15 minutes reaction time point
Protocol: as §1, §2, §3, §4, §5, §6, §7, §8

[4] = target: Avi-KRAS G12C (1-169) GppNHp/RAF1 RBD-3×FLAG (52-151) (Homo sapiens, UniProt P01116, G12C); assay: Raf1 RBD-KRAS G12C-GppNHp disruption assay (protein:protein interaction HTRF); settings: read-out: Raf1-GppNHp-KRAS G12C disruption IC50
Protocol: Biological Example 2: Disrupting KRAS G12C-Effector Binding (Protein: Protein Interaction HTRF Assay)
A protein: protein interaction (PPI) Homogeneous Time Resolved Fluorescence (HTRF) assay was used to determine the effectiveness of compounds of the present disclosure in disrupting KRAS G12C protein and effector (RAF1 Ras Binding Domain (RBD)) binding.
The HTRF assay used the following reagents and proteins: 50 nM Avi-KRAS G12C (1-169) GppNHp/RAF1 RBD-3×FLAG (52-151); 35 nM Avi-PI3K RBD-3×FLAG; Assay Buffer: 50 mM Tris pH 7.5, 100 mM NaCl, 5 mM MgCl2, 0.1% BSA, 0.01% Tween 20, 10% DMSO; Bead Buffer: 50 mM Tris pH 7.5, 0.01% Tween 20; Assay volume: 20 μL (384 well plate-low volume format); and Compound titration: 30-0.02 μM, 3× dilution series.
The HTRF assay employed the following protocol:
Compounds were dispensed in assay plate (384-well, Grenier Bio-One #784075) using Echo (model 555) with dose response settings: 200 nL final volume, titration from 100 μM as a 10-point dilution series. KRAS proteins were prepared in assay buffer, and dispensed on plates, 5 μL per well, then incubated for 1 h at room temperature, with 700 rpm shaking. RAF1 RBD were prepared in assay buffer, dispensed onto plates, 5 μL per well, and then incubated for 1 h at room temperature, with 700 rpm shaking. Reagent mix was then prepared and dispensed on plates, 10 μL per well, and then incubated for 1 h at room temperature, with 700 rpm shaking.
Plates were analyzed on an Envision plate reader using the following setting: Excitation 320 nm, Bandwidth 75 nm; Emission 615 nm, Bandwidth 85 nm; Gain 100%; Flashes 100; Lag 60 μs. Data was reported as percentage of activity, with DMSO as 100%. Data was plotted and analyzed using Prism 8.
(§9) The percent of modification of GppNHp, GTP, or GDP loaded KRAS G12C by MALDI-TOF MS, biochemical Raf1 RBD-KRAS G12C-GppNHp disruption assay IC50, and pERK inhibition IC50 of selected compounds described herein are shown in Table 4. For percent of modification at 15 minutes (MALDI-TOF MS) of GppNHp, GTP, or GDP loaded KRAS G12C: A: percent of modification ≥70%; B: 50≤percent of modification <70%; C: 10%≤percent of modification <50%; D: percent of modification <10%. For Raf1 RBD-KRAS G12C-GppNHp disruption assay: A: IC50≤0.5 μM; B: 0.5 μM<IC50≤5 μM; C: 5 μM<IC50≤20 μM; D: IC50>20 μM. For pERK inhibition in H358 cell assay: A: IC50≤0.1 μM; B: 0.1 μM<IC50≤1 μM; C: IC50>1 μM. Blanks in the table represent that compound was not tested in the indicated assay.

[5] = system: pERK in NCI-H358 cells; assay: Cell-based pERK HTRF assay (pERK inhibition in H358 cells); settings: read-out: pERK in H358 cell IC50, 30 min incubation
Protocol: Biological Example 3: Cell-Based pERK HTRF Assay
pERK assays (Perkin Elmer) were used to determine the effectiveness of compounds of the present disclosure in disrupting KRAS G12C protein/effector signaling in cells.
On Day 1, cells (NCI-H358) were seeded into 96-well plates at 4×10^4 cells/well in complete growth media (RPMI, 10% FBS).
On Day 2, cells were treated with compounds at 0.25% DMSO. The source plate was created with compounds diluted in media at 5-fold the final assay concentration. The compounds were run in a 9-point concentration curve starting at 75 μM, with a 3-fold dilution between concentrations. 20 μL was transferred onto the cell plates (final volume in wells was 100 μL). Plates were harvested after 30 min incubation by aspirating media and adding kit-supplied 1× supplemented lysis buffer to all wells (75 μl per well). Plates were then placed on a plate shaker and incubated at 850 rpm for an additional 30 min.
Antibody mixture solution was prepared by diluting aliquoted d2 and Eu Cryptate antibodies 1:20 in kit supplied detection buffer, then mixed the diluted antibodies solutions (1:1 v:v). 4 μL of this solution was then added to a 384-well detection plate (Perkin Elmer; 6008230).
Samples were homogenized by pipetting up and down and then transferred (16 μL of cell lysates) from the 96-well cell culture plate to two wells of the HTRF 384-well detection plate containing the antibody solution. Plates were centrifuged (524 g for […]) and allowed to incubate between 4 and 24 h at room temperature. Maximum signal is reached after 4 h incubation time and remains stable over a period of 24 hours. Therefore, readings can be made between 4 and 24 h of incubation. Plates were centrifuged again (524 g for 1 min), and analyzed on the En Vision plate reader using the following settings: Excitation 320 nm, Bandwidth 75 nm; Emission 615 nm, Bandwidth 85 nm; Gain 100%; Flashes 100; Lag 60 μs.
as §9

SMILES | GppNHp-KRAS G12C percent of modification [1] | GTP-KRAS G12C percent of modification [2] | GDP-KRAS G12C percent of modification [3] | IC50 [4] [nM] | IC50 [5] [nM]
C=CC(=O)N1CC[C@@H](N(C)c2nc(OC[C@@H]3CC4(CC4)CN3CC)nc3c(F)c(-c4ccc(F)c5sc(N)c(C#N)c45)c(C(F)(F)F)cc23)[C@H]1C | A (percent of modification ≥70%) | A (percent of modification ≥70%) | A (percent of modification ≥70%) | < 500 | < 100
C=CC(=O)N1CC[C@@H](N(CC)c2nc(OC[C@]34CCCN3C[C@H](OC)C4)nc3cc(-c4ccc(F)c5sc(N)c(C#N)c45)c(F)cc23)[C@H]1C | A (percent of modification ≥70%) | A (percent of modification ≥70%) | A (percent of modification ≥70%) | < 500 | 100 to 1000
C=CC(=O)N1CC[C@@H](N(C)c2nc(OC[C@@H]3CC4(CC4)CN3C)nc3c(F)c(-c4nc(N)cc(C)c4C(F)(F)F)c(C(F)(F)F)cc23)[C@H]1C | A (percent of modification ≥70%) | B (50≤percent of modification <70%) | A (percent of modification ≥70%) | < 500 | 100 to 1000

The next lines start with the values.

GppNHp-KRAS G12C percent of modification [1] | GTP-KRAS G12C percent of modification [2] | GDP-KRAS G12C percent of modification [3] | IC50 [4] [nM] | IC50 [5] [nM] | SMILES
B (50≤percent of modification <70%) | C (10%≤percent of modification <50%) | C (10%≤percent of modification <50%) | < 500 | < 100 | C=CC(=O)N1CC[C@@H](N(CC)c2nc(OC[C@@]34CCCN3C[C@H](F)C4)nc3c(F)c(-c4ccc(F)c5sc(N)c(C#N)c45)c(C(F)(F)F)cc23)[C@H]1C
A (percent of modification ≥70%) | A (percent of modification ≥70%) | A (percent of modification ≥70%) | < 500 | < 100 | C=CC(=O)N1CC[C@@H](N(CC)c2nc(OC[C@@]34CCCN3C[C@H](OC)C4)nc3c(F)c(-c4ccc(F)c5sc(N)c(C#N)c45)ccc23)[C@H]1C
B (50≤percent of modification <70%) | C (10%≤percent of modification <50%) | A (percent of modification ≥70%) | < 500 | < 100 | C=CC(=O)N1CC[C@@H](N(C)c2nc(OC[C@@]34CCCN3C[C@H](F)C4)nc3c(F)c(-c4nc(N)cc(C)c4C(F)(F)F)c(Cl)cc23)[C@@H]1C
D (percent of modification <10%) | D (percent of modification <10%) | B (50≤percent of modification <70%) | < 500 | < 100 | C=CC(=O)N1C[C@@H]2C[C@H]1CN2c1nc(OC[C@@]23CCCN2C[C@H](F)C3)nc2c(F)c(-c3ccc(F)c4sc(N)c(C#N)c34)c(C(F)(F)F)cc12
